{"source": "patent US20040077601A1", "about": "“Methods and compositions relating to isoleucine boroproline compounds” (Point Therapeutics, Inc., priority 2002, published 2004)", "test_system": "chemokine KC", "assay": "Serum levels of the chemokine KC by ELISA in mice after administration", "conditions": "0.2-, 2.0-, 20-, 200-μg doses, subcutaneous injection vs oral gavage, serum two hours later"}
{"smiles": "CCC(C)C(N)C(=O)N1CCCC1B(O)O", "note": "(stereo not shown) [Ile-boroPro]", "values": [{"measurement": "Potency in induction of serum KC response, subcutaneous versus oral", "result": "more potent in the induction of a KC response"}]}
